The target of the assay is Human NK3 receptor (Homo sapiens, UniProt P29371). Nature of the assay: NK3 receptor binding assay (antagonist radioligand, scintillation counting). Also noted: expressed in transfected cells; host or cells: CHO cells (membrane preparations). Conditions: affinity of the radioligand for the receptor; CHO cells. Here is the method: The radiolabeld NK3 receptor antagonist Osanetant ([^3H]SR 142801) was used at concentrations of 0,4 nM in the binding assay as an antagonistic ligand, while the NK3 receptor antagonist SB 222200 at concentrations of 10µM was used to determine nonspecific binding, which is outlined in the table below, outlining the particulars of the assays.
A scatchard plot is used todetermine the KD.

Sequences of proteins named here, by UniProt entry; tags and fusion partners are left off.
UniProt P29371, whole entry: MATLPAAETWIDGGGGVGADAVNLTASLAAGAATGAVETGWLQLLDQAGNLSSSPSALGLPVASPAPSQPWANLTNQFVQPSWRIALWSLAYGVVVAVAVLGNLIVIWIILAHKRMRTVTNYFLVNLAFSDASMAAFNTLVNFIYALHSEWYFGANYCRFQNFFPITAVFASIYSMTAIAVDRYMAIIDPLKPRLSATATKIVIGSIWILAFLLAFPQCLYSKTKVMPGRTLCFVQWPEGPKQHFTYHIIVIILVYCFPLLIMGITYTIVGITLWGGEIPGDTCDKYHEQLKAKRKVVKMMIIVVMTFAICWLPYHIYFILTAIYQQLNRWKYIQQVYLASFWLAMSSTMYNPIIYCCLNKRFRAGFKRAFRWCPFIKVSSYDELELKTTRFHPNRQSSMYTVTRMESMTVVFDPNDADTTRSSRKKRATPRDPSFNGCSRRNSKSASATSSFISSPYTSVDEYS

For `CC(=O)N(C)C1(c2ccccc2)CCN(CCC[C@]2(c3ccc(Cl)c(Cl)c3)CCCN(C(=O)c3ccccc3)C2)CC1` [[^3H]SR 142801, reference compound], the affinity, expressed as Kd, was 0.47 nM.
